Assay results: patent publication US20220233492A1, “METHOD OF PREVENTING OR TREATING POSTOPERATIVE PAIN” (priority 2019, published 2022)

System: postoperative pain, subjects for an open elective abdominoplasty
Experiment: Example 2: IV infusion started before anesthesia induction vs placebo, open elective abdominoplasty
Format: in vivo, human
Conditions: FIG. 11

Compound: CCCCOc1c(OC)cc(C(=O)NCC2(N(C)C)CCOCC2)cc1OC [VVZ-149, 4-butoxy-N-((4-(dimethylamino)tetrahydro-2H-pyran-4-yl)methyl)-3,5-dimethoxybenzamide]
- amount of intraoperative fentanyl used during surgery vs placebo: less amount of intraoperative fentanyl
